Assay results as given in patent publication US20070160574A1, “Design of CXC chemokine analogs for the treatment of human diseases” (priority 2000, published 2007).

Tested on: IL-8 receptor (differentiated HL-60 cells)
Assay: Calcium mobilization in differentiated HL-60 cells, Fluo-4/AM
Format: cell-based
Details: over control wells (plain medium = 1.0), about 10 to 200 μg/ml
Experimental: The HL-60 cells are cultured as described above, harvested and suspended in Tyrode's salt solution at a density of about 2×10^6 cells/ml. The Tyrode's salt solution contains about 137 mM NaCl, 2.7 mM KCl, 1 mM MgCl2, 1 mM CaCl2, 0.2 mM NaH2PO4, 12 mM NaHCO3, and 5.5 mM glucose.
The cells are labeled with 4 μM of Fluo-4/AM (Molecular Probes, Inc.) for 45 minutes at 37° C. to measure calcium mobilization from cells. The label is a dye that fluoresces when bound to calcium. […] An increase in fluorescence indicates an increase in calcium mobilization. The cells are washed three times with the Tyrode's salt solution after labeling and re-suspended at 5×10^6 cells/ml.
Changes in the level of cellular fluorescence are read in a Thermo Labsystems Fluorskan Acsent fluorescence plate reader (VWR Scientific Prod's). The controls include cells treated with either the native chemokine or the plain medium of Tyrode's Salt Solution. Data is expressed using 1.0 as the standard level of fluorescence in the plain medium. The reported values represent the mean of at least duplicate measurements from wells in one or more experiments.

SMILES | Average fold increase in calcium mobilization | further results
CC[C@H](C)[C@H](NC(=O)[C@H](C)NC(=O)[C@H](CCC(N)=O)NC(=O)[C@H](Cc1ccc(O)cc1)NC(=O)[C@H](CCCNC(=N)N)NC(=O)[C@H](CC(C)C)NC(=O)[C@H](CCC(=O)O)NC(=O)[C@H](CCCCN)NC(=O)[C@H](C)NC(=O)[C@@H](N)CO)C(=O)N[C@@H](CCCCN)C(=O)N[C@H](C(=O)N[C@@H](Cc1ccc(O)cc1)C(=O)N[C@@H](CO)C(=O)N[C@@H](CCCCN)C(=O)NCCCCCCCCCCC(=O)N[C@@H](CC(N)=O)C(=O)N[C@@H](Cc1c[nH]c2ccccc12)C(=O)N[C@H](C(=O)N[C@@H](CCC(N)=O)C(=O)N[C@@H](CCCNC(=N)N)C(=O)N[C@H](C(=O)N[C@H](C(=O)N[C@@H](CCC(=O)O)C(=O)N[C@@H](CCCCN)C(=O)N[C@@H](Cc1ccccc1)C(=O)N[C@@H](CC(C)C)C(=O)N[C@@H](CCCCN)C(=O)N[C@@H](CCCNC(=N)N)C(=O)N[C@@H](C)C(=O)N[C@@H](CCC(=O)O)C(=O)N[C@@H](CC(N)=O)C(N)=O)C(C)C)C(C)C)C(C)C)[C@@H](C)O [SEQ ID NO:1656] | 86.8 | 
CC[C@H](C)[C@H](NC(=O)[C@H](Cc1ccccc1)NC(=O)[C@H](CCC(N)=O)NC(=O)[C@H](Cc1ccc(O)cc1)NC(=O)[C@H](CCCNC(=N)N)NC(=O)[C@H](CC(C)C)NC(=O)[C@H](CCC(=O)O)NC(=O)[C@H](CCCCN)NC(=O)[C@H](C)NC(=O)[C@H](CO)NC(C)=O)C(=O)N[C@@H](CCCNC(=N)N)C(=O)N[C@H](C(=O)N[C@@H](Cc1ccc(O)cc1)C(=O)N[C@@H](CO)C(=O)N[C@@H](CCCCN)C(=O)NCCCCCCCCCCC(=O)N[C@@H](CC(N)=O)C(=O)N[C@@H](Cc1c[nH]c2ccccc12)C(=O)N[C@H](C(=O)N[C@@H](CCC(N)=O)C(=O)N[C@@H](CCCNC(=N)N)C(=O)N[C@H](C(=O)N[C@H](C(=O)N[C@@H](CCC(=O)O)C(=O)N[C@@H](CCCCN)C(=O)N[C@@H](Cc1ccccc1)C(=O)N[C@@H](CC(C)C)C(=O)N[C@@H](CCCCN)C(=O)N[C@@H](CCCNC(=N)N)C(=O)N[C@@H](C)C(=O)N[C@@H](CCC(=O)O)C(=O)N[C@@H](CC(N)=O)C(N)=O)C(C)C)C(C)C)C(C)C)[C@@H](C)O [SEQ ID NO:1661] | 100.6 | 
CC[C@H](C)[C@H](NC(=O)[C@H](Cc1ccccc1)NC(=O)[C@H](CCC(N)=O)NC(=O)[C@H](C)NC(=O)[C@H](CCCNC(=N)N)NC(=O)[C@H](CC(C)C)NC(=O)[C@H](CCC(=O)O)NC(=O)[C@H](CCCCN)NC(=O)[C@H](C)NC(=O)[C@@H](N)CO)C(=O)N[C@@H](CCCCN)C(=O)N[C@H](C(=O)N[C@@H](Cc1ccc(O)cc1)C(=O)N[C@@H](CO)C(=O)N[C@@H](CCCCN)C(=O)NCCCCCCCCCCC(=O)N[C@@H](CC(N)=O)C(=O)N[C@@H](Cc1c[nH]c2ccccc12)C(=O)N[C@H](C(=O)N[C@@H](CCC(N)=O)C(=O)N[C@@H](CCCNC(=N)N)C(=O)N[C@H](C(=O)N[C@H](C(=O)N[C@@H](CCC(=O)O)C(=O)N[C@@H](CCCCN)C(=O)N[C@@H](Cc1ccccc1)C(=O)N[C@@H](CC(C)C)C(=O)N[C@@H](CCCCN)C(=O)N[C@@H](CCCNC(=N)N)C(=O)N[C@@H](C)C(=O)N[C@@H](CCC(=O)O)C(=O)N[C@@H](CC(N)=O)C(N)=O)C(C)C)C(C)C)C(C)C)[C@@H](C)O [SEQ ID NO:1663] |  | Average fold increase in calcium mobilization (listed as 1663): 112.9
CC[C@H](C)[C@H](NC(=O)[C@H](Cc1ccccc1)NC(=O)[C@H](CCC(N)=O)NC(=O)[C@H](C)NC(=O)[C@H](CCCNC(=N)N)NC(=O)[C@H](CC(C)C)NC(=O)[C@H](CCC(=O)O)NC(=O)[C@H](CCCCN)NC(=O)[C@H](C)NC(=O)[C@H](CO)NC(C)=O)C(=O)N[C@@H](CCCCN)C(=O)N[C@H](C(=O)N[C@@H](Cc1ccc(O)cc1)C(=O)N[C@@H](CO)C(=O)N[C@@H](CCCCN)C(=O)NCCCCCCCCCCC(=O)N[C@@H](CC(N)=O)C(=O)N[C@@H](Cc1c[nH]c2ccccc12)C(=O)N[C@H](C(=O)N[C@@H](CCC(N)=O)C(=O)N[C@@H](CCCNC(=N)N)C(=O)N[C@H](C(=O)N[C@H](C(=O)N[C@@H](CCC(=O)O)C(=O)N[C@@H](CCCCN)C(=O)N[C@@H](Cc1ccccc1)C(=O)N[C@@H](CC(C)C)C(=O)N[C@@H](CCCCN)C(=O)N[C@@H](CCCNC(=N)N)C(=O)N[C@@H](C)C(=O)N[C@@H](CCC(=O)O)C(=O)N[C@@H](CC(N)=O)C(N)=O)C(C)C)C(C)C)C(C)C)[C@@H](C)O [SEQ ID NO:1664] | 147.5 | 
CC[C@H](C)[C@H](NC(=O)[C@H](Cc1ccc(O)cc1)NC(=O)[C@H](CCC(N)=O)NC(=O)[C@H](C)NC(=O)[C@H](CCCNC(=N)N)NC(=O)[C@H](CC(C)C)NC(=O)[C@H](CCC(=O)O)NC(=O)[C@H](CCCCN)NC(=O)[C@H](C)NC(=O)[C@H](CO)NC(C)=O)C(=O)N[C@@H](CCCCN)C(=O)N[C@H](C(=O)N[C@@H](Cc1ccc(O)cc1)C(=O)N[C@@H](CO)C(=O)N[C@@H](CCCCN)C(=O)NCCCCCCCCCCC(=O)N[C@@H](CC(N)=O)C(=O)N[C@@H](Cc1c[nH]c2ccccc12)C(=O)N[C@H](C(=O)N[C@@H](CCC(N)=O)C(=O)N[C@@H](CCCNC(=N)N)C(=O)N[C@H](C(=O)N[C@H](C(=O)N[C@@H](CCC(=O)O)C(=O)N[C@@H](CCCCN)C(=O)N[C@@H](Cc1ccccc1)C(=O)N[C@@H](CC(C)C)C(=O)N[C@@H](CCCCN)C(=O)N[C@@H](CCCNC(=N)N)C(=O)N[C@@H](C)C(=O)N[C@@H](CCC(=O)O)C(=O)N[C@@H](CC(N)=O)C(N)=O)C(C)C)C(C)C)C(C)C)[C@@H](C)O [SEQ ID NO:1665] | 103.6 | 
CC[C@H](C)[C@H](NC(=O)[C@H](Cc1ccccc1)NC(=O)[C@H](CCC(N)=O)NC(=O)[C@H](Cc1ccc(O)cc1)NC(=O)[C@H](CCCNC(=N)N)NC(=O)[C@H](CC(C)C)NC(=O)[C@H](CCC(=O)O)NC(=O)[C@H](CCCCN)NC(=O)[C@H](C)NC(=O)[C@H](CO)NC(C)=O)C(=O)N[C@@H](CCCCN)C(=O)N[C@H](C(=O)N[C@@H](Cc1ccc(O)cc1)C(=O)N[C@@H](CO)C(=O)N[C@@H](CCCCN)C(=O)NCCCCCCCCCCC(=O)N[C@@H](CC(N)=O)C(=O)N[C@@H](Cc1c[nH]c2ccccc12)C(=O)N[C@H](C(=O)N[C@@H](CCC(N)=O)C(=O)N[C@@H](CCCNC(=N)N)C(=O)N[C@H](C(=O)N[C@H](C(=O)N[C@@H](CCC(=O)O)C(=O)N[C@@H](CCCCN)C(=O)N[C@@H](Cc1ccccc1)C(=O)N[C@@H](CC(C)C)C(=O)N[C@@H](CCCCN)C(=O)N[C@@H](CCCNC(=N)N)C(=O)N[C@@H](C)C(=O)N[C@@H](CCC(=O)O)C(=O)N[C@@H](CC(N)=O)C(N)=O)C(C)C)C(C)C)C(C)C)[C@@H](C)O [SEQ ID NO:1666] |  | Average fold increase in calcium mobilization (listed as 1666): 143.8
CC[C@H](C)[C@H](NC(=O)[C@H](Cc1ccc(O)cc1)NC(=O)[C@H](CCC(N)=O)NC(=O)[C@H](Cc1ccc(O)cc1)NC(=O)[C@H](CCCNC(=N)N)NC(=O)[C@H](CC(C)C)NC(=O)[C@H](CCC(=O)O)NC(=O)[C@H](CCCCN)NC(=O)[C@H](C)NC(=O)[C@H](CO)NC(C)=O)C(=O)N[C@@H](CCCCN)C(=O)N[C@H](C(=O)N[C@@H](Cc1ccc(O)cc1)C(=O)N[C@@H](CO)C(=O)N[C@@H](CCCCN)C(=O)NCCCCCCCCCCC(=O)N[C@@H](CC(N)=O)C(=O)N[C@@H](Cc1c[nH]c2ccccc12)C(=O)N[C@H](C(=O)N[C@@H](CCC(N)=O)C(=O)N[C@@H](CCCNC(=N)N)C(=O)N[C@H](C(=O)N[C@H](C(=O)N[C@@H](CCC(=O)O)C(=O)N[C@@H](CCCCN)C(=O)N[C@@H](Cc1ccccc1)C(=O)N[C@@H](CC(C)C)C(=O)N[C@@H](CCCCN)C(=O)N[C@@H](CCCNC(=N)N)C(=O)N[C@@H](C)C(=O)N[C@@H](CCC(=O)O)C(=O)N[C@@H](CC(N)=O)C(N)=O)C(C)C)C(C)C)C(C)C)[C@@H](C)O [SEQ ID NO:1667] | 57.3 | 
CC[C@H](C)[C@H](NC(=O)[C@H](Cc1ccc(O)cc1)NC(=O)[C@H](CCC(N)=O)NC(=O)[C@H](Cc1c[nH]cn1)NC(=O)[C@H](CCCNC(=N)N)NC(=O)[C@H](CC(C)C)NC(=O)[C@H](CCC(=O)O)NC(=O)[C@H](CCCCN)NC(=O)[C@H](C)NC(=O)[C@H](CO)NC(C)=O)C(=O)N[C@@H](CCCCN)C(=O)N[C@H](C(=O)N[C@@H](Cc1ccc(O)cc1)C(=O)N[C@@H](CO)C(=O)N[C@@H](CCCCN)C(=O)NCCCCCCCCCCC(=O)N[C@@H](CC(N)=O)C(=O)N[C@@H](Cc1c[nH]c2ccccc12)C(=O)N[C@H](C(=O)N[C@@H](CCC(N)=O)C(=O)N[C@@H](CCCNC(=N)N)C(=O)N[C@H](C(=O)N[C@H](C(=O)N[C@@H](CCC(=O)O)C(=O)N[C@@H](CCCCN)C(=O)N[C@@H](Cc1ccccc1)C(=O)N[C@@H](CC(C)C)C(=O)N[C@@H](CCCCN)C(=O)N[C@@H](CCCNC(=N)N)C(=O)N[C@@H](C)C(=O)N[C@@H](CCC(=O)O)C(=O)N[C@@H](CC(N)=O)C(N)=O)C(C)C)C(C)C)C(C)C)[C@@H](C)O [SEQ ID NO:1668] | 105.4 | 
